From patent publication US20100292309A1

Target: transforming growth factor-beta
Assay: cell-based or functional assay

recombinant human TGF-beta sRII/Fc chimera (from UniProt P37173 23-166) (Fc fusion)
IFN-gamma secreted by activated OT-1 in the presence of splenocytes from IL-6KO mice treated with Ad-VSV-G+Ad-hsp70, with 50 ng/mL 341-BR TGF-beta sRII/Fc: 710 pg/mL | fold increase of IFN-gamma secreted by activated OT-1 in the presence of splenocytes from IL-6KO mice: 5 to 6 fold
